According to ChEMBL document CHEMBL5108049, “Development and Characterization of Type I, Type II, and Type III LIM-Kinase Chemical Probes” (J Med Chem, 2022):

Key:
Format in all cases: functional
Settings in all cases: 0.5 h
[1] = Upregulation of PCM1 expression in human HeLa cells assessed as fold increase at 100 uM incubated for 30 mins by phosphoproteomic analysis
[2] = Upregulation of ANLN expression in human HeLa cells assessed as fold increase at 100 uM incubated for 30 mins by phosphoproteomic analysis
[3] = Upregulation of CTTNBP2NL expression in human HeLa cells assessed as fold increase at 100 uM incubated for 30 mins by phosphoproteomic analysis
[4] = Upregulation of CAP2 expression in human HeLa cells assessed as fold increase at 100 uM incubated for 30 mins by phosphoproteomic analysis
[5] = Upregulation of HNRNPC expression in human HeLa cells assessed as fold increase at 100 uM incubated for 30 mins by phosphoproteomic analysis
[6] = Upregulation of NEFH expression in human HeLa cells assessed as fold increase at 100 uM incubated for 30 mins by phosphoproteomic analysis
HeLa = assay: Downregulation of HNRNPU expression in human HeLa cells assessed as fold increase at 100 uM incubated for 30 mins by phosphoproteomic analysis
[7] = Upregulation of INF2 expression in human HeLa cells assessed as fold increase at 100 uM incubated for 30 mins by phosphoproteomic analysis
[8] = Upregulation of ARHGAP17 expression in human HeLa cells assessed as fold increase at 100 uM incubated for 30 mins by phosphoproteomic analysis

CC(C)C(=O)Nc1ncc(-c2cc(C(F)F)nn2-c2c(Cl)cccc2Cl)s1
fold change (FC) [1]: 1.03 | fold change (FC) [2]: 1.02 | fold change (FC) [3]: 1.01 | fold change (FC) [4]: 1 | fold change (FC) [5]: 1.09 | fold change (FC) [6]: 1.01 | fold change (FC) (HeLa): -1.03 | fold change (FC) [7]: 1.03 | fold change (FC) [8]: 1.01
